These results are taken from ChEMBL document CHEMBL4000154, “Pyristriatins A and B: Pyridino-Cyathane Antibiotics from the Basidiomycete Cyathus cf. striatus” (J Nat Prod, 2016).

As usually defined, the MIC is the lowest concentration found to suppress growth.

This assay concerns Pseudomonas aeruginosa. Description: Antibacterial activity against Pseudomonas aeruginosa PA14 after 24 to 48 hrs by serial dilution method. It counts as functional.

GENTAMICIN had an MIC of 0.5 mg/L.
